## Measured water solubility values of organic chemicals

Source: data files of OPERA 2.9 (Mansouri et al.), github.com/kmansouri/OPERA.

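The OPERA project collected these measurements from public sources as training and test data for property models. One number stands for a compound and property, with no spread given. Conditions of the individual experiments are not part of the data. Where a salt, mixture or single isomer is drawn, the source does not say that exactly this form was tested. Unmarked limits or estimates from the upstream databases cannot be ruled out.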

Solubility in water is on a log10 molar scale (set defined at 25 °C).
"–" marks a cell with nothing listed here.

| SMILES | name | log solubility (log10 mol/L) |
|---|---|---|
| O=C1CCC(=O)N1C(O)C(Cl)Cc1ccc2ncccc2c1 (stereo not drawn) | – | -2.202 |
| COc1ccc(C(=O)c2ccccc2)c(O)c1 | 2-Hydroxy-4-methoxybenzophenone | -3.251 |
| O=[N+]([O-])c1ccc2c(c1CO)OCO2 | (5-Nitro-2H-1,3-benzodioxol-4-yl)methanol | -3.064 |
| ClC(Cl)=C=C(Cl)C(Cl)Cl | Buta-1,2-diene, 1,1,3,4,4-pentachloro- | -4.23 |
| COc1ccc(CCC#N)cc1OC | 3-(3,4-Dimethoxyphenyl)propanenitrile | -1.901 |
| CCOC(=O)OC(C)OC(=O)[C@@H]1N2C(=O)[C@@H](NC(=O)[C@H](N)c3ccccc3)[C@H]2SC1(C)C (some centres not stated) | Bacampicillin | -3.578 |
| CCCCCCCCCCCCCCCC(=O)OCCO | hexadecanoic acid, 2-hydroxyethyl ester | -4.603 |
| CCC(C)c1cc([N+](=O)[O-])cc([N+](=O)[O-])c1OC(=O)OC(C)C (stereo not drawn) | Dinobuton | -4.91 |
| CCCCCCCC/C=C\CCCCCCCCCCCC(=O)NCCCCCCCCCCCCCCCCCC | 13-Docosenamide, N-octadecyl-, (13Z)- | -7.421 |
| CCCCCCCC(C)O (stereo not drawn) | 2-Nonanol | -2.74 |
| Clc1cc(Cl)c(Cl)c(Oc2ccc(Cl)c(Cl)c2Cl)c1 | 2,2',3,3',4,5'-Hexachlorodiphenyl ether | -8.55 |
| CNCCCC1c2ccccc2C=Cc2ccccc21 | Protriptyline | -6.057 |
| N#CC1(N2CCCCC2)CCN(Cc2ccccc2)CC1 | 1'-(Phenylmethyl)-(1,4'-bipiperidine)-4'-carbonitrile | -2.243 |
| C=CC(C)CCCC(C)(C)OC=O (stereo not drawn) | 7-Octen-2-ol, 2,6-dimethyl-, 2-formate | -3.712 |
| CC1(C)Cc2cccc(O)c2O1 | 2,3-Dihydro-2,2-dimethyl-7-benzofuranol | -2.18 |
| CC(CC(=O)OCC(COC(=O)CC(C)CC(C)(C)C)OC(=O)CC(C)CC(C)(C)C)CC(C)(C)C (stereo not drawn) | Propane-1,2,3-triyl tris(3,5,5-trimethylhexanoate) | -7.011 |
| Cc1ccc(C(N)=O)c(O)c1 | 4-Methylsalicylamide | -2.917 |
| CCCC(=O)c1ccc2c(c1)N(CCCN1CCN(C)CC1)c1ccccc1S2 | Butaperazine | -2.161 |
| N#CNC(=N)NCCCCCCNC(=N)NC#N | Guanidine, N,N'''-1,6-hexanediylbis[N'-cyano- | -4.571 |
| O=C(O)c1sc(C(=O)O)c2c1OCCO2 | 2,3-Dihydrothieno[3,4-b]-1,4-dioxin-5,7-dicarboxylic acid | -2.868 |
| CCCCCCCCCCCCCCCCCCCCCCOC(=O)CCCCCCCCCCCCCCCCC | Docosyl stearate | -6.071 |
| CN1C(C(=O)Nc2ccccn2)=C(O)c2sccc2S1(=O)=O | Tenoxicam | -3.876 |
| O=C1CCC([C@H]2CC[C@H](c3ccc(F)c(F)c3)CC2)CC1 | – | -5.864 |
| CCC(=O)c1ccc2c(c1)N(CCCN1CCN(CCO)CC1)c1ccccc1S2 | Carphenazine | -3.672 |
| CCN(CC)c1ccc(N=Nc2c(C#N)cc([N+](=O)[O-])cc2C#N)c(NC(C)=O)c1 | – | -8.103 |
| NC(=O)OCC(COC(N)=O)c1ccccc1 | Felbamate | -2.507 |
| O=C1NCCN1CCN1CCC(c2cn(-c3ccc(F)cc3)c3ccc(Cl)cc23)CC1 | Sertindole | -4.661 |
| C=C(C)C(=O)OCCC(F)(F)C(F)(F)C(F)(F)C(F)(F)C(F)(F)C(F)(F)F | 3,3,4,4,5,5,6,6,7,7,8,8,8-Tridecafluorooctyl methacrylate | -6.535 |
| COC(=O)Nc1nc2cc(Sc3ccccc3)ccc2[nH]1 | Fenbendazole | -7.48 |
| FC(F)=C(F)OC(F)(F)C(F)(OC(F)(F)C(F)(F)C(F)(F)F)C(F)(F)F (stereo not drawn) | Perfluoro(2-propoxypropyl vinyl ether) | -8.191 |
| CC(N)CCC(=O)O (racemic) | – | 0.539 |
| NC(=O)Nc1ccc(Cl)cc1 | 4-Chlorophenylurea | -1.979 |
| CCN(CCC#N)c1ccc(N=Nc2ccc([N+](=O)[O-])cc2)cc1 | C.I. Disperse Orange 25 | -7.209 |
| O=C(c1ccccc1)c1ccc(-c2ccccc2)cc1 | Methanone, [1,1'-biphenyl]-4-ylphenyl- | -6.545 |
| COCCCNc1nc(Cl)nc(NC(C)C)n1 | – | -3.36 |
| CC(C)(C)C(=O)Oc1ccc([N+](=O)[O-])cc1 | 4-Nitrophenyl trimethylacetate | -6.57 |
| O=C(Oc1cccc2cccc(OC(=O)c3ccccc3)c12)c1ccccc1 | 1,8-Naphthylene dibenzoate | -7.265 |
| CC(=O)NO | Acetohydroxamic acid | 0.831 |
| CCCC(O)C(CC)CO (stereo not drawn) | 2-Ethyl-1,3-hexanediol | -0.54 |
| CNc1ccccc1C(=O)OC | Methyl N-methylanthranilate | -2.7 |
| CNS(=O)(=O)c1cc(OC)c(N=Nc2c(O)c(C(=O)Nc3ccc4[nH]c(=O)[nH]c4c3)cc3ccccc23)cc1C | – | -8.217 |
| Nc1cc(Cl)c(Cl)cc1S(=O)(=O)O | Benzenesulfonic acid, 2-amino-4,5-dichloro- | -2.105 |

Again, the 3 entries with the lowest log solubility:

| SMILES | name | log solubility (log10 mol/L) |
|---|---|---|
| Clc1cc(Cl)c(Cl)c(Oc2ccc(Cl)c(Cl)c2Cl)c1 | 2,2',3,3',4,5'-Hexachlorodiphenyl ether | -8.55 |
| CNS(=O)(=O)c1cc(OC)c(N=Nc2c(O)c(C(=O)Nc3ccc4[nH]c(=O)[nH]c4c3)cc3ccccc23)cc1C | – | -8.217 |
| FC(F)=C(F)OC(F)(F)C(F)(OC(F)(F)C(F)(F)C(F)(F)F)C(F)(F)F (stereo not drawn) | Perfluoro(2-propoxypropyl vinyl ether) | -8.191 |